This passage reports Ki and IC50 results from patent US9944618B2, “Inhibiting neurotransmitter reuptake” (Mayo Foundation for Medical Education and Research, priority 2013, dated 2018).

Chains of the proteins cited; added tags and fusions are not shown. Lines headed by an entry give the natural chain unless they say otherwise; changes in a name come on top.
UniProt P31645, whole entry: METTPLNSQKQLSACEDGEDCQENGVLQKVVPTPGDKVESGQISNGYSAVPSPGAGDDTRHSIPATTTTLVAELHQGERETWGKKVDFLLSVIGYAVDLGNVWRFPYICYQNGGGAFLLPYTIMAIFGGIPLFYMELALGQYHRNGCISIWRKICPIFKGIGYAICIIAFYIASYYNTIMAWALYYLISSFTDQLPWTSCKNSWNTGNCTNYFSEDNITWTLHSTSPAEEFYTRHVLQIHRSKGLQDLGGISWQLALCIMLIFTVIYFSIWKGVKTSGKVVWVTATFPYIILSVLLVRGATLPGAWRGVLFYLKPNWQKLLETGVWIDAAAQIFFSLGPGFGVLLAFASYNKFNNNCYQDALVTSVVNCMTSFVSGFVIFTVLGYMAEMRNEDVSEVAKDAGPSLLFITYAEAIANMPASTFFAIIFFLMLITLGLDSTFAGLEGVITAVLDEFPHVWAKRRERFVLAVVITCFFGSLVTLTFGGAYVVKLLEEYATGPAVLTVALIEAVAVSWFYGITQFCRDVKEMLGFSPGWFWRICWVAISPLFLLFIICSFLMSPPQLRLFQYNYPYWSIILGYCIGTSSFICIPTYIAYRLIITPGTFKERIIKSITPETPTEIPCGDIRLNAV
UniProt P23975, whole entry: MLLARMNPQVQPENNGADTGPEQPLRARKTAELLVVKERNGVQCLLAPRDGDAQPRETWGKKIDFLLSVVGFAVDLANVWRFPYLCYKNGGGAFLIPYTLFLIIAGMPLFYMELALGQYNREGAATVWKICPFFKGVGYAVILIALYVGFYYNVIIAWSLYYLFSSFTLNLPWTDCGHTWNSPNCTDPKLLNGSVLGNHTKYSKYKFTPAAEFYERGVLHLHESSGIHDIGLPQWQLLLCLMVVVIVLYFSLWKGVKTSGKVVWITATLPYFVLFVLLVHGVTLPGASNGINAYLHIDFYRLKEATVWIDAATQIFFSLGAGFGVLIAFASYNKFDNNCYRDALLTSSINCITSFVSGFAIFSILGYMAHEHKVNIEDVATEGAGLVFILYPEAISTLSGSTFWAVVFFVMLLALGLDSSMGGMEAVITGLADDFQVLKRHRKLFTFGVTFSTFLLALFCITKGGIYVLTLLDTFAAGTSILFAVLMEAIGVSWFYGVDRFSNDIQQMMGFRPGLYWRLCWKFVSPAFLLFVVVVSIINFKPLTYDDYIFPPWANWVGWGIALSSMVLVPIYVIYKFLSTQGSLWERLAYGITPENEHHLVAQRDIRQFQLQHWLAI
UniProt Q01959, whole entry: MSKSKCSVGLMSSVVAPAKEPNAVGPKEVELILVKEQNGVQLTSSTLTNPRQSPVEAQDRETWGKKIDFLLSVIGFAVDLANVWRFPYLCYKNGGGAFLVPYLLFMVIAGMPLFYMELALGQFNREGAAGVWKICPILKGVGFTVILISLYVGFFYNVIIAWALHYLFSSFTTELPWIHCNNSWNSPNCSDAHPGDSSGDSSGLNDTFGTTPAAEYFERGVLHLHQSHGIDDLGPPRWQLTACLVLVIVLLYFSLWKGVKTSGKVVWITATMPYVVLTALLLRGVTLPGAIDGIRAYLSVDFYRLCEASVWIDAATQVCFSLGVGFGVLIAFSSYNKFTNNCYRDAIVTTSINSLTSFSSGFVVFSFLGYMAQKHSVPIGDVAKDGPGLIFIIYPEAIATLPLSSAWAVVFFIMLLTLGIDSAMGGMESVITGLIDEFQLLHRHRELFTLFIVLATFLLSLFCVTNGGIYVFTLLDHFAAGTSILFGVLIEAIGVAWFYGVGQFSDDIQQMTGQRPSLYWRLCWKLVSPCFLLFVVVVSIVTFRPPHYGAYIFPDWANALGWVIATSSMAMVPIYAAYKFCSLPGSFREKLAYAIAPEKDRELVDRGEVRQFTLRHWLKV
UniProt Q12809: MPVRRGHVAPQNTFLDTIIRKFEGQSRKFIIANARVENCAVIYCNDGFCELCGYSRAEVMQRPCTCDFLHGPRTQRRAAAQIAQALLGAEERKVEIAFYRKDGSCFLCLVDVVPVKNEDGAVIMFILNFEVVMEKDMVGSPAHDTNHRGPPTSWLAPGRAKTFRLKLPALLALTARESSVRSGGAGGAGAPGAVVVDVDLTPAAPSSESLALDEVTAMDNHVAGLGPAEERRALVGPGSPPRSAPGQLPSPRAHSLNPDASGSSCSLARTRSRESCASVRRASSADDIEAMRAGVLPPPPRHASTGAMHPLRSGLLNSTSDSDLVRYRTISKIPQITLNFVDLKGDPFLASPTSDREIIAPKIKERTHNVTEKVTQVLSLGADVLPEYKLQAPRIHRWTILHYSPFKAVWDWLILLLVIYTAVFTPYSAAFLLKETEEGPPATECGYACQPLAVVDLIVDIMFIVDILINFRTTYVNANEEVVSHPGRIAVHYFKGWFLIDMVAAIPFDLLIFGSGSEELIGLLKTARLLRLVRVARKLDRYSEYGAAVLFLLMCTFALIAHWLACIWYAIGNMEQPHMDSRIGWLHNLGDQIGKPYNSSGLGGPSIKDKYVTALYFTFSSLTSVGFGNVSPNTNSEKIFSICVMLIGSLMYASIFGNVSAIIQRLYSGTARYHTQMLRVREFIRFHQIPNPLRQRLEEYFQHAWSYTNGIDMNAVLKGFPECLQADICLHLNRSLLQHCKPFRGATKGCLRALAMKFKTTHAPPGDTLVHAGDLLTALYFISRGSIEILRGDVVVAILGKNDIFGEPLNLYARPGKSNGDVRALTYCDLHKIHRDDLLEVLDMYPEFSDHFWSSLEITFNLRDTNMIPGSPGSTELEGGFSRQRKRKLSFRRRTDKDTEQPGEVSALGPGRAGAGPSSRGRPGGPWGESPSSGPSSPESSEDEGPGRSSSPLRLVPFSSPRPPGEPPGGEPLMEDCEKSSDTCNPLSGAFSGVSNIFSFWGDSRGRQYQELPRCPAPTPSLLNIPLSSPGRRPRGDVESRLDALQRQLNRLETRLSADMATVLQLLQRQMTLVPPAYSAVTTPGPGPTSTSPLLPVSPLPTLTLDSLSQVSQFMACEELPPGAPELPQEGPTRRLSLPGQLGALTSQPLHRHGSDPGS

The target of series [1] is human serotonin transporter (Homo sapiens (Human), UniProt P31645). The experiment in a line: Human SERT (serotonin transporter) uptake assay. Particulars: read-out: hSERT Ki.
Series [2] deals with human norepinephrine transporter (Homo sapiens (Human), UniProt P23975). The series can be described thus: Human NET (norepinephrine transporter) uptake assay. The class given is cell-based. Particulars: selected reference compounds, HEK293F cells, Cheng-Prusoff; read-out: hNET Ki.
Series [3] has as its target human dopamine transporter (Homo sapiens (Human), UniProt Q01959). The experiment in a line: Human DAT (dopamine transporter) uptake assay. The class given is cell-based. Particulars: selected reference compounds, HEK293F cells, Cheng-Prusoff; read-out: hDAT Ki.
Another series addresses hERG (Homo sapiens (Human), UniProt Q12809). The experiment in a line: Human ERG (hERG) assay, hERG currents in hERG-expressing CHO cells. The class given is cell-based. Particulars: selected reference compounds. (In general: The hERG channel carries a current that helps repolarise heart muscle cells.)

The structures appear in SMILES notation. Where two headings read alike, the source gives them in different places.

The Ki is the dissociation constant of the complex between target and ligand, obtained from inhibition or displacement. In the case of `CN(C)C[C@H](c1ccc2ccccc2c1)[C@H](O)c1ccccc1` [Compound 83], in series [1], the Ki was 0.0051 µM. As for `CN(C)CC(c1ccc(O)cc1)C1(O)CCCCC1` (stereo not drawn) [compound 181], the Ki came out at 0.668 µM in series [2]; 3.73 µM in series [3]; 0.0041 µM in series [1] (selected reference compounds, HEK293F cells, Cheng-Prusoff). Take `CC(NC(C)(C)C)C(=O)c1cccc(Cl)c1` (stereo not drawn) [compound 176]: in series [2], the Ki was found to be 3.64 µM.

Broadly, the IC50 is the midpoint of a concentration-inhibition curve. A low value points to greater potency. On hERG, `CNCCCN1c2ccccc2CCc2ccccc21` [compound 174] registered an IC50 of 13 µM.
